Measurements from ChEMBL document CHEMBL4325935, “Molecular Basis for the Selective Inhibition of Histone Deacetylase 6 by a Mercaptoacetamide Inhibitor” (ACS Med Chem Lett, 2018).

Biological target: T1, Histone deacetylase 8 (Homo sapiens, UniProt Q9BY41)
T1 sequence (Q9BY41 whole entry): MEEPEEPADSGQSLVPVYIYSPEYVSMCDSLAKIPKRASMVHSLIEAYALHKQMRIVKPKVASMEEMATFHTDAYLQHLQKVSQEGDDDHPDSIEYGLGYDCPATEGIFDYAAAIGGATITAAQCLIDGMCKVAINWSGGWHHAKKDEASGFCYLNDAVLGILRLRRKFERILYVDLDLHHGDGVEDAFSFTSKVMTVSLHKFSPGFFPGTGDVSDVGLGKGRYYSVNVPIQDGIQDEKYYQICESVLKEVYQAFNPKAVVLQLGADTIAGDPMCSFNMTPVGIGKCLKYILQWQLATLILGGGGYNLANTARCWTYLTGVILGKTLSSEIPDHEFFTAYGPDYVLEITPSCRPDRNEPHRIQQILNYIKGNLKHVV
Assay: Inhibition of full length human N-terminal FLAG-tagged HDAC8 (1 to 377 residues) expressed in HEK293 cells preincubated for 15 mins followed by Boc-[trifluoroacetyl-Lys]-AMC substrate addition measured after 30 mins by fluorimetric method
Format: cell-based

Compound: O=C(CCCCCCC(=O)Nc1ccccc1)NO [VORINOSTAT]
- IC50: 0.669 µM
